{"source": "patent US11919896B2", "about": "“[1,2,4]triazolo[1,5-a]pyridine compound as JAK inhibitor and use thereof” (Zhuhai United Laboratories Co., Ltd., priority 2018, dated 2024)", "key": {"[1]": {"tested_on": "collagen-induced arthritis (CIA) in mice", "format": "in vivo, DBA/1 mice", "design": "key to Average clinical score: score 0-4 per limb, max 16 per animal", "details": "15 mg/kg p.o. bid"}, "[2]": {"test": "Pharmacokinetics (PK) test in mice", "format": "in vivo, mice (C57BL/6)", "details": "male C57BL/6 mice; iv 2 mg/kg, intragastric 15 mg/kg"}}, "note": "Values joined by “and” are separate entries in the source; they are usually repeats but may differ in a detail not shown here. Equal entries are not always repeated. Where two headings read alike, the source gives them in different places.", "data": [{"smiles": "O=C(Nc1nc2cccc(C3CCC4(CC3)CCN(C(=O)[C@@H]3CC3(F)F)CC4)n2n1)C1CC1", "values": [{"measurement": "Inhibition rate (clinical score AUC vs blank group)", "setting": "[1]", "result": 48.6, "unit": "%"}, {"measurement": "AUC ± SEM of clinical score (AUC of incidence)", "setting": "[1]; administration period", "result": "26.63 ± 4.57"}, {"measurement": "Average clinical score", "setting": "[1]; day 21", "result": "0.00 ± 0.00"}, {"measurement": "Incidence of arthritis", "setting": "[1]; day 21", "result": 0, "unit": "%"}, {"measurement": "Average clinical score", "setting": "[1]; day 24", "result": "0.00 ± 0.00"}, {"measurement": "Incidence of arthritis", "setting": "[1]; day 24", "result": 0, "unit": "%"}, {"measurement": "Average clinical score", "setting": "[1]; day 27", "result": "0.50 ± 0.19"}, {"measurement": "Incidence of arthritis", "setting": "[1]; day 27", "result": 50, "unit": "%"}, {"measurement": "Average clinical score", "setting": "[1]; day 28", "result": "0.63 ± 0.26"}, {"measurement": "Incidence of arthritis", "setting": "[1]; day 28", "result": 50, "unit": "%"}, {"measurement": "Average clinical score", "setting": "[1]; day 29", "result": "0.75 ± 0.25"}, {"measurement": "Incidence of arthritis", "setting": "[1]; day 29", "result": 63, "unit": "%"}, {"measurement": "Average clinical score", "setting": "[1]; day 31", "result": "1.00 ± 0.33"}, {"measurement": "Incidence of arthritis", "setting": "[1]; day 31", "result": 75, "unit": "%"}, {"measurement": "Average clinical score", "setting": "[1]; day 34", "result": "1.63 ± 0.38"}, {"measurement": "Incidence of arthritis", "setting": "[1]; day 34", "result": 88, "unit": "%"}, {"measurement": "Average clinical score", "setting": "[1]; day 36", "result": "2.50 ± 0.46"}, {"measurement": "Incidence of arthritis", "setting": "[1]; day 36", "result": 100, "unit": "%"}, {"measurement": "Average clinical score", "setting": "[1]; day 38", "result": "3.13 ± 0.58"}, {"measurement": "Incidence of arthritis", "setting": "[1]; day 38", "result": 100, "unit": "%"}, {"measurement": "Average clinical score", "setting": "[1]; day 41", "result": "3.0 and 3.00 ± 0.60"}, {"measurement": "Incidence of arthritis", "setting": "[1]; day 41", "result": 100, "unit": "%"}, {"measurement": "AUC0-inf", "setting": "[2]", "result": 17.969, "unit": "µM·h"}]}]}
